Assay [1] deals with human thyroid receptor beta ligand-binding domain (LBD) (Homo sapiens, UniProt P10828). Kind of assay: TR-FRET thyroid receptor beta coactivator assay (THR biochemical assay, Assay 1).
Assay [2] concerns the target human thyroid receptor alpha ligand-binding domain (LBD) (Homo sapiens, UniProt P10827). The experiment in a line: TR-FRET thyroid receptor alpha coactivator assay (THR biochemical assay, Assay 1).
A further assay deals with THR beta (Homo sapiens, UniProt P10828). The experiment in a line: HEK293T THR beta/RXR luciferase reporter assay (Assay 2). The assay is classed as cell-based.
Another assay has as its target THR alpha (Homo sapiens, UniProt P10827). Kind of assay: HEK293T THR alpha/RXR luciferase reporter assay (Assay 2). The class given is cell-based.

Chains of the proteins cited; added tags and fusions are not shown. Residues count along the entry.
UniProt P10828, whole entry: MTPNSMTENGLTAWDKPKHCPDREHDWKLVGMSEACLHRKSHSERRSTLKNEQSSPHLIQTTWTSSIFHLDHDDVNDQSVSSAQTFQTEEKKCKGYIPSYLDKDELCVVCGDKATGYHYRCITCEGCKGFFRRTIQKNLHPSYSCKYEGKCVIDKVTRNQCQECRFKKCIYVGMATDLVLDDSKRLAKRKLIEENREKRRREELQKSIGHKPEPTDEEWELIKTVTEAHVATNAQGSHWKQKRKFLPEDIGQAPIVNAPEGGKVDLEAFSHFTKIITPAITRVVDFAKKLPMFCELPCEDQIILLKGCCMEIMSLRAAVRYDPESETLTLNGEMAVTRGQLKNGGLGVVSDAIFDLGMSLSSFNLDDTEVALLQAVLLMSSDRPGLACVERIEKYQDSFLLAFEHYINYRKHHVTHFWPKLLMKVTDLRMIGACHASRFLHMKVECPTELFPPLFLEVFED
UniProt P10828, 217-461 limits assumed: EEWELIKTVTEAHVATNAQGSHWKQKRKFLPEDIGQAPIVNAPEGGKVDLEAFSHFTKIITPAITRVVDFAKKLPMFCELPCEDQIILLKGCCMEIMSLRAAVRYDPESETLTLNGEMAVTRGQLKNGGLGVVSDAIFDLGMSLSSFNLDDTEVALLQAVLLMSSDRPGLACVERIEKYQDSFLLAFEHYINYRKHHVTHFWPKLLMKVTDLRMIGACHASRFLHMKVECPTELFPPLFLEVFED
UniProt P10827, 1-410 isoform 2: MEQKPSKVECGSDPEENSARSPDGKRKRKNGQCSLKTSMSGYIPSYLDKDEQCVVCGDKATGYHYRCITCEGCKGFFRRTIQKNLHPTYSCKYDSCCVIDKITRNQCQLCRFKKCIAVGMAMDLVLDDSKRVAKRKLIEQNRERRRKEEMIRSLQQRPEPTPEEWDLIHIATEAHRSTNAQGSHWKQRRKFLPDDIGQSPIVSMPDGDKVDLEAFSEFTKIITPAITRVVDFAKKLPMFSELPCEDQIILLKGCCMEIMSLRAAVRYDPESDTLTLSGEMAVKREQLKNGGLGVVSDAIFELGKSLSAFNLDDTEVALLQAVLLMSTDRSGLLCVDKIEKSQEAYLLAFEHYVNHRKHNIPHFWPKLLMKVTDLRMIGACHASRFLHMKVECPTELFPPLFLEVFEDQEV
UniProt P10827, 163-410 isoform 2 limits assumed: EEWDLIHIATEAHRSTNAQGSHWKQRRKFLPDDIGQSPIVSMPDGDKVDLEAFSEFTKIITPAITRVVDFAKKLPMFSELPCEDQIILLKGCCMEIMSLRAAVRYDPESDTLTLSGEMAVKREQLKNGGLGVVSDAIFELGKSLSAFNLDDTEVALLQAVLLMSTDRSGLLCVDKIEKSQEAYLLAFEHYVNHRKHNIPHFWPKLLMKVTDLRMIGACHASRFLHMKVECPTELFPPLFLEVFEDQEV
UniProt P19793, whole entry partner: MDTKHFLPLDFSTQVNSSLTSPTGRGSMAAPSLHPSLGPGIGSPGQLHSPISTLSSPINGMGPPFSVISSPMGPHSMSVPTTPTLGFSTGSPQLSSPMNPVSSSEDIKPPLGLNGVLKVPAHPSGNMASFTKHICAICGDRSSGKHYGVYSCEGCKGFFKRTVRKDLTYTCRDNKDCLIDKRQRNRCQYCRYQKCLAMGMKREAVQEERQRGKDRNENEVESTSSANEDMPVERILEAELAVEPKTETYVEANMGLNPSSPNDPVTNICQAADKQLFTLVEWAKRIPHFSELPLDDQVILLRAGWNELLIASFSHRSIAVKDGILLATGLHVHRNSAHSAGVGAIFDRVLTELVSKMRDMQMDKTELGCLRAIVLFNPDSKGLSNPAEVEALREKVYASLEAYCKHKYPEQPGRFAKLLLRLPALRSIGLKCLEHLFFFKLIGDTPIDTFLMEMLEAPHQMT

Molecules are shown by their SMILES.

Data on one molecule can be found in patent US12180192B2, “Modulators of THR-β and methods of use thereof” (ALIGOS THERAPEUTICS, INC., priority 2019, dated 2024).

In the case of `CC(C)C1(c2cc(Oc3c(Cl)cc(-n4nc(N)c(=O)[nH]c4=O)cc3Cl)n[nH]c2=O)CC1`, the “Activity category Assay 1 THRβ (Emax)” value in assay [1] (Table 5, Assay 1, THRβ) is recorded as “C (Emax<50%)”. Moreover, the EC50 in assay [1] (read-out: Activity category Assay 1 (EC50, THR-beta agonist), THR-beta, TR-FRET coactivator assay) is < 50 nM; in assay [2] (read-out: Activity category Assay 1 (EC50, THR-alpha agonist activity), Table 4, THR-alpha) it was 50 to 250 nM; on THR beta (read-out: Activity category Assay 2 (EC50, THR-beta agonist), THR-beta, HEK293T reporter assay), < 50 nM; at THR alpha (read-out: Activity category Assay 2 (EC50, THR-alpha agonist activity), Table 4, THR-alpha), 50 to 250 nM. For the same molecule, the “Activity category Assay 1 THRα (Emax)” value in assay [2] (Table 5, THRα) was “C (Emax<50%)”. Moreover, the “Activity category Assay 2 THRβ (Emax)” value on THR beta (Table 5, Assay 2, THRβ) is on record as “A (Emax≥75%)”. In addition, the “Activity category Assay 2 THRα (Emax)” value on THR alpha (Table 5, THRα) was “B (Emax≥50%, and <75%)”.
